Reference: PubChem BioAssay AID504324 (Broad Institute, 2011)
The entries are a selection whose mix differs from that of the whole data set. The source made the active and inactive calls.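 How the source made its calls: active means compounds lowering the signal whose fitted half-maximal concentration is at most ten times their top tested dose; inconclusive means flat curve with a 30 to 70% drop, or poor fit; inactive means rising signal, flat curve, or potency beyond limit.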

Assay: HRE-luciferase induction in zinc-containing medium – U2OS HRE-luc cells, dry powder, mechanism study for HIF pathway activator project, dose response (AID 504324)
Settings: U2OS HRE-luciferase reporter, luminescence, at 38 µM (top of the series)
Procedure, shortened: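 Assay system: human osteosarcoma U2OS cells stably expressing 3×HRE-driven luciferase reporter. Buffer or medium: phenol red-free DMEM, 10% FBS, plus 50 µM zinc sulfate. Compound dosing: 8-point, 3-fold compound series. Schedule: cells plated 24 h before dosing, compound exposure 24 h, 37 °C. Measured by: Steady-Glo luciferase luminescence.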

O=c1[nH]c2ccccc2n1C1CCN(Cc2ccc(O)c3ncccc23)CC1
activity change, negative = decrease: inactive: 30.7%
